Data taken from US20190031618A1, “BENZIMIDAZOLE DERIVATIVES USEFUL AS CB-1 INVERSE AGONISTS” (Janssen Pharmaceutica NV, priority 2015, published 2019).
Read-outs that look alike come from different tables or passages of the source.

The chains behind the UniProt entries cited, without tags or fusion partners.
UniProt P34972, whole entry: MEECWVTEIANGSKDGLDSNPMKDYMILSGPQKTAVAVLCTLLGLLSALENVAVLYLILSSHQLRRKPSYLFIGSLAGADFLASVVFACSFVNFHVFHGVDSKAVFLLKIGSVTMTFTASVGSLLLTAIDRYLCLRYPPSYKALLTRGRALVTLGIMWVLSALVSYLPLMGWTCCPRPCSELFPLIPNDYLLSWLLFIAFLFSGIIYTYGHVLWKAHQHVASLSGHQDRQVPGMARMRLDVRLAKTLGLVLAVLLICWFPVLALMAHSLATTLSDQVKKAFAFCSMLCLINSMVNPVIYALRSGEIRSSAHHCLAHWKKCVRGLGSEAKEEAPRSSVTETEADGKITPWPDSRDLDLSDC
UniProt P21554, whole entry: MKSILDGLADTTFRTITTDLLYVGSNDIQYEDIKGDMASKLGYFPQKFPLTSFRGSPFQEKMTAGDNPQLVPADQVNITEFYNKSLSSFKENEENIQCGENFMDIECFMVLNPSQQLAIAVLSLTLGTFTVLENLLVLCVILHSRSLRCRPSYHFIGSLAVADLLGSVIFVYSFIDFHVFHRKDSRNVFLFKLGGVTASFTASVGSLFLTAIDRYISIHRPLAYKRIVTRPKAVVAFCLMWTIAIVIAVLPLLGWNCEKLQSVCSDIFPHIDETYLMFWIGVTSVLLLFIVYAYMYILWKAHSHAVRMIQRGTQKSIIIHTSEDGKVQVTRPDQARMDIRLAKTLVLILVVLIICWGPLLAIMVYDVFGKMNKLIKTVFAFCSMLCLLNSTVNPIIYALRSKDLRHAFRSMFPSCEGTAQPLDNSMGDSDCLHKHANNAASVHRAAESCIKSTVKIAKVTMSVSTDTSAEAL

Tests used:
[1] = target: Human CB2R (Cannabinoid receptor 2) (Homo sapiens, UniProt P34972); test: CB-2 in vitro cAMP (HTRF) assay
Excerpt: CB1 and CB2 receptors are Gi-coupled GPCR. Activation of CB1 and CB2 receptors results in a decrease in cAMP production. An inverse agonist of the CB1 or CB2 receptor results in the opposite effect, an increase of cAMP production. The principle of this assay is based on HTRF® technology (Homogeneous Time-Resolved Fluorescence). The method is a competitive immunoassay between native cAMP produced by cells and the cAMP labeled with the fluorophore d2. The tracer binding is quantified by a Mab anti-cAMP labeled with Eu3+TBP-NHS Cryptate (supplied as part of the assay kit). The specific signal (i.e. energy transfer) is inversely proportional to the concentration of cAMP in the standard or sample.
Human CB1R (Cannabinoid receptor 1) was stably transfected in HEK-293 cells (DiscoveRx, cat: 93-0200C1). Human CB2R (Cannabinoid receptor 2) was stably transfected in HEK-293 cells (DiscoveRx, cat: 93-0201C1). Cell cultures were maintained in media: DMEM (Invitrogen Cat#12430-054) supplemented with 10% HI FBS (Invitrogen Cat#16140-071), 1% L-glutamine (Invitrogen Cat#25030-081), 0.2 mg/ml Hygromycin B (Invitrogen Cat#10687-010), 600 μg/mL G418 (Invitrogen Cat#10131-035), and 1× Penn/Strep (Invitrogen 15140-122). After cell expansion, aliquots were cryo-stored in media containing 5% DMSO (Pierce Cat#20684).
One day prior to experiments media was warmed to 37° C. and the cryo-stored cells were thawed in a 37° C. water bath. The cells were then added to media (10× volume) and the mixture was centrifuged at 1000 RPM for 5 min. The supernate was removed and the cells were re-suspended in media. A sample of the cell suspension was evaluated on a Cedex XS automated cell counter (Innovatis Systems) to determine viable cells/ml. Additional media was added to the cells to achieve a final cell density of 4E5 cells/mL. The cells were then plated into 384 well PDL white solid bottom plates (Greiner, Cat#781945) at 20 μL per well using a Multidrop (Thermo Scientific). Cells were removed from Row P (location of cAMP standards). Two columns of cells were plated into a clear bottom 384 well PDL coated plate (Greiner, Cat#781944) to view confluence the day of the assay. The cell plates were lidded and stored for 15 minutes in a hood, then transferred to an incubator (37° C., 5% CO2, 95% humidity) overnight.
DMSO was added to all wells of 384 well V bottom polystyrene plate (Greiner, Cat#781280) except to columns 1 and 13, rows O and P and wells M13-M23 and N13-N23. Test compounds (60 μL, 10 mM) were added to Column 1 and 13 (A1 through N1 and A13 through L13). Test compounds were serially diluted 1/3 by transferring and mixing 20 μl sample with 40 μL DMSO.
DMSO (40 μL) was added to wells of 384 well V bottom polystyrene plate: O2 through O11, M14 through M23, N14 through N23, and O14 through O23. AM630 (also known as [6-iodo-2-methyl-1-[2-(4-morpholinyl)ethyl]-1H-indol-3-yl](4-methoxyphenyl)-methanone, Cayman Chemical, Cat#10006974) (60 μL, 10 mM) was added to O1; and 1-(2,4-dichlorophenyl)-7-[(4-fluorophenyl)methylene]-4,5,6,7-tetrahydro-N-1-piperidinyl-1H-benzimidazole-3-carboxamide (60 μL, 10 mM) was added to N13. The control was serially diluted 1/3 by transferring and mixing 20 μl sample with 40 μL DMSO. This process resulted 11 doses per control, 10 mM to […].
Cells plated the day prior to the assay in clear bottom plates were viewed on an inverse microscope to ensure confluency in the range of 60-75%. […]

[2] = target: Human CB1R (Cannabinoid receptor 1) (Homo sapiens, UniProt P21554); test: CB-1 in vitro cAMP (HTRF) assay
[3] = read-out: CB2 HEK_cAMP EC50, HEK cells, 250 nM forskolin, mean where tested more than once, tested form: trifluoroacetate
[4] = read-out: CB1 HEK_cAMP EC50, HEK cells, 250 nM forskolin, mean where tested more than once, tested form: trifluoroacetate
[5] = read-out: CB2 HEK_cAMP EC50, HEK cells, 250 nM forskolin, mean where tested more than once
[6] = read-out: CB1 HEK_cAMP EC50, HEK cells, 250 nM forskolin, mean where tested more than once

Structure (SMILES)	EC50 [1, 3] [µM]	EC50 [2, 4] [µM]	EC50 [1, 5] [µM]	EC50 [2, 6] [µM]
NC(=O)Cc1ccc(N2CCC(n3c(C4CC4)nc4ccc(C(c5ccc(Cl)cc5)c5ccc(Cl)cc5)cc43)CC2)cc1	5.8	0.0364	–	–
CCOC(=O)N1C2CCC1CC(n1c(-c3cccnc3)nc3ccc(C(c4ccc(Cl)cc4)c4nccs4)cc31)C2 (stereo not drawn)	–	–	2.77	1.08
NCCc1nc2ccc(C(c3ccc(Cl)cc3)c3ccc(Cl)cc3)cc2n1C1CCN(Cc2cccc(C(=O)O)c2)CC1	> 10	0.0356	–	–
O=C(O)CCNC(=O)c1cccc(S(=O)(=O)N2CCC(n3c(C4CC4)nc4ccc(C(c5ccc(Cl)cc5)c5ccc(Cl)cc5)cc43)CC2)c1	–	–	7.6	0.141
CCCc1nc2ccc(C(c3ccc(Cl)cc3)c3nccs3)cc2n1C1CC2CCC(C1)N2S(=O)(=O)C(F)(F)F (stereo not drawn)	–	–	> 10	> 10
CC(Cn1c(C2CC2)nc2ccc(C(c3ccc(Cl)cc3)c3nccs3)cc21)c1ccc(Cl)cc1 (stereo not drawn)	–	–	7.23	0.26
